The values that follow come from PubChem BioAssay AID504444 (National Center for Advancing Translational Sciences (NCATS), 2011).

Structures are written as SMILES. Only a part is listed here, and it is no random draw. Records with an inconclusive call do not appear. The source made the active and inactive calls. The call rests on the fitted dose curve; in most records, active means well fitted inhibition curve with a large enough effect; inconclusive means small, poorly fitted or top-dose-only effect, or effect the other way; inactive means flat fitted curve, though single readings scatter.
Potency means the concentration at half of the fitted maximal effect.

This test can be described thus: Nrf2 qHTS screen for inhibitors. Further: nearly all actives have a fitted effect of over 60% in size. As to conditions: A549 ARE-Fluc reporter, luciferase luminescence, 18-24 h. The text has this:
NIH Molecular Libraries Probe Production Network [MLPCN]
NIH Chemical Genomics Center [NCGC]
Assay Provider: Shyam Biswal, Johns Hopkins University
Nrf2 is a transcription factor that maintains cellular redox homoestasis and protects cells from xenobiotics. Nrf2 binds to the antioxidant response element (ARE) to induce gene expression of a broad spectrum of genes that encode for antioxidants. […] Finding a small molecule that act as an inhibitor of Nrf2 function would represent a novel therapeutic target that could lead to improvement in survival of patients undergoing chemo- and/or radio- therapy.
This is the Nrf2 activity measured in the luminescent read.
1. […]
A concentration-response assay was performed with A549 ARE_Fluc cells which are suspended in 5% FBS OPTI-MEM. […] The plate is then incubated at 37deg C at 5% CO2 for 30 minutes before they are read on the ViewLux (Perkin Elmer) for a fluorescent read Ex=405(10)/Em=525(10) for a 3 second exposure, 2x binning, and high gain. […] Afterwards another ViewLux read is performed using the clear filter to get a luminescent read with the settings of 40 second exposure, 2x binning, and high gain. Cytotoxicity is assessed through the first fluorescent read and then biochemical activity against Nrf2 is measured in the luminescent read.
As for `N=C(N)c1ccc(OCCCCCOc2ccc(C(=N)N)cc2)cc1`, the Potency is active: 7.31 µM.

As for `CC[n+]1c(/C=C/N(C)c2ccccc2)oc2ccccc21`, the Potency is active: 7.31 µM.
